Only a part is listed here, and it is no random draw. Some results for these compounds are left out of this collection, so the calls shown say nothing about other tests. Calls of active or inactive are those of the source.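 How the source made its calls: active means interference check ratio from 0.5 to 1.5 plus GFP to RFP signal ratio inhibition reaching or exceeding a fixed threshold (cut at about 30% in these data, passing the limit was not always enough); inactive means the rest.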

The term inhibition denotes the relative decrease from the control value, in per cent.

This assay can be described thus: gst-4 reporter inhibition in live C. elegans – whole organism, uHTS, GFP/RFP fluorescence ratio, strain VP596, SKN-1 inhibitor project, primary screen (AID 624304). The settings on record: C. elegans VP596 Pgst-4::GFP/RFP ratio, acrylamide-induced, 24 h; at 21.8 µM; active compounds read high.
Turning to `COc1ccc(Br)c(C(=O)NCC2(N3CCCCC3)CCCCC2)c1`, the inhibition is inactive: 13.3%.

Consider `C=C(C)C#CC(O)(C(=O)OC1CCN(C)CC1)c1ccccc1` (stereo unspecified), for which the inhibition was inactive: 7.62%.

Turning to `CN(C)c1cccc(C(=O)NCC2(N(C)C)CCCCC2)c1`, the inhibition was inactive: -3.49%.

For `CC(C)Oc1ccc(C(=O)NCC2(N(C)C)CCCCC2)cc1`, the inhibition was inactive: 3.33%.

Turning to `O=C(OCCN1CCCC1)C(O)(c1ccccc1)c1ccccc1`, the inhibition is inactive: 14.4%.

In the case of `O=C(OC1CN2CCC1CC2)C(CO)(c1ccccc1)c1ccccc1` (stereo unspecified), the inhibition was inactive: -2.21%.

Take `COc1cccc(C(=O)NCC2(N3CCCCC3)CCCCC2)c1`: the inhibition is inactive: -2.69%.

Regarding `COc1ccc(Cl)cc1C(=O)NCC1(N(C)C)CCCCC1`, the inhibition was inactive: 8.17%.

`O=C(NCC1(N2CCCCC2)CCCCC1)c1cccc(Cl)c1`: the inhibition is inactive: 4.56%.

For the compound `CN(C)C1(CNC(=O)c2ccc(Br)cc2)CCCCC1`, the inhibition is inactive: 12.2%.

In the case of `COc1cc(C(=O)NCC2(N(C)C)CCCCC2)c([N+](=O)[O-])cc1OC`, the inhibition was inactive: -6.97%.

Regarding `C=CCN1CCN(CCOC(=O)C(O)(c2ccccc2)c2ccccc2)CC1`, the inhibition was inactive: 3.75%.

With `O=C(NCC1(N2CCCCC2)CCCCC1)c1cc(F)c(F)cc1Cl`, the inhibition was inactive: 19.6%.

Turning to `CCN1CCCC(OC(=O)C2(O)c3ccccc3C=Cc3ccccc32)C1` (stereo unspecified), the inhibition was inactive: 4.18%.

For the compound `Cc1cc(C(=O)NCC2(N3CCCCC3)CCCCC2)ccc1[N+](=O)[O-]`, the inhibition is inactive: 20%.

Turning to `O=C(NCC1(N2CCCCC2)CCCCC1)c1cccc(Br)c1`, the inhibition was inactive: -7.53%.

With `COc1ccc(C(=O)NCC2(N(C)C)CCCCC2)cc1`, the inhibition is inactive: -5.05%.

Regarding `Cc1ccccc1C(=O)NCC1(N2CCCCC2)CCCCC1`, the inhibition is inactive: 7.86%.

As for `CN(C)c1ccc(C(=O)NCC2(N(C)C)CCCCC2)cc1`, the inhibition was inactive: -14.1%.

On to `CN(C)C1CCCC1OC(=O)C(O)(c1ccccc1)c1ccccc1` (stereo unspecified), for which the inhibition was inactive: -5.51%.

On to `CC(C)N1C(=O)CC2(CCN(CCOC(=O)C(O)(c3ccccc3)c3ccccc3)CC2)C1=O`, for which the inhibition was inactive: -9.74%.

Consider `CCN(CC)CC(C)C(C)OC(=O)C(O)(c1ccccc1)c1ccccc1` (stereo unspecified), for which the inhibition was inactive: 2.95%.

Take `COc1cc(SC)ccc1C(=O)NCC1(N(C)C)CCCCC1`: the inhibition was inactive: -11.3%.

`Cc1ccc(C(=O)NCC2(N3CCCCC3)CCCCC2)cc1`: the inhibition was inactive: 13.6%.

`O=C(NCC1(N2CCCCC2)CCCCC1)c1cc([N+](=O)[O-])ccc1Cl`: the inhibition was inactive: 0.383%.

Regarding `CN1[C@@H]2CC[C@H]1CC(OC(=O)C(O)(c1ccccc1)c1ccccc1)C2` (stereo partly specified), the inhibition is inactive: -2.18%.

For the origin of these results see PubChem BioAssay AID624304 (Sanford-Burnham Center for Chemical Genomics, 2012).
